# Test results taken from US10040791B2, “Isoxazole derivative as mutant isocitrate dehydrogenase 1 inhibitor” (Daiichi Sankyo Company, Limited, priority 2014, dated 2018).
# Amino acid sequences for entries named in this document (tags omitted).
# UniProt O75874, whole entry R132H: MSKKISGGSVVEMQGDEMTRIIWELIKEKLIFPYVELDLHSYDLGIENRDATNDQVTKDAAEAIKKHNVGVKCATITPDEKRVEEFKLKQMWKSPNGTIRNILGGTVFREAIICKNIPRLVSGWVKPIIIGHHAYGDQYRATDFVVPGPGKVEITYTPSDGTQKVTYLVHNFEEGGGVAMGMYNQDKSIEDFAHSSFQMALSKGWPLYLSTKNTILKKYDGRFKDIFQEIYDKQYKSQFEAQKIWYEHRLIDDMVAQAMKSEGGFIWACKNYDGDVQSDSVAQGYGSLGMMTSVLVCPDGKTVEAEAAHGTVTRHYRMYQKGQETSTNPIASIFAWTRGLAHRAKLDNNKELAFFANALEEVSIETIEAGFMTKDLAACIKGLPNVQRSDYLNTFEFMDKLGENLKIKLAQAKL
# Target: IDH1R132H (Homo sapiens (Human), UniProt O75874, R132H)
# Assay: Inhibitory activity against IDH1R132H enzyme (NADPH detection, WST-8)
# Type: biochemical
# Conditions: 12 nM, residual NADPH detected with WST-8, read-out: Test Example 1 IDH1 R132H IC50
row,SMILES,IC50 [nM]
1,"COCC(C)(C)c1onc(-c2c(Cl)cc(Cl)cc2Cl)c1C(=O)n1ccc2c(/C=C/C(=O)O)cccc21 [Example 42, (2E)-3-(1-{[5-(1-Methoxy-2-methylpropan-2-yl)-3-(2,4,6-trichlorophenyl)-1,2-oxazol-4-yl]carbonyl}-1H-indol-4-yl)prop-2-enoic acid]",50
2,"Cc1cn(C(=O)c2c(-c3c(Cl)cc(Cl)cc3Cl)noc2C2(C)CC2)c2cccc(/C=C/C(=O)O)c12 [Example 43, (2E)-3-(3-Methyl-1-{[5-(1-methylcyclopropyl)-3-(2,4,6-trichlorophenyl)-1,2-oxazol-4-yl]carbonyl}-1H-indol-4-yl)prop-2-enoic acid]",18
3,"CC(C)(F)c1onc(-c2c(Cl)cc(Cl)cc2Cl)c1C(=O)n1cc(F)c2c(/C=C/C(=O)O)cccc21 [Example 45, (2E)-3-(3-Fluoro-1-{[5-(2-fluoropropan-2-yl)-3-(2,4,6-trichlorophenyl)-1,2-oxazol-4-yl]carbonyl}-1H-indol-4-yl)prop-2-enoic acid]",13
4,"Cc1cn(C(=O)c2c(-c3c(Cl)cc(Cl)cc3Cl)noc2C(C)(C)F)c2c(F)ccc(/C=C/C(=O)O)c12 [Example 50, (2E)-3-(7-Fluoro-1-{[5-(2-fluoropropan-2-yl)-3-(2,4,6-trichlorophenyl)-1,2-oxazol-4-yl]carbonyl}-3-methyl-1H-indol-4-yl)prop-2-enoic acid]",11
5,"Cc1cn(C(=O)c2c(-c3c(F)cccc3Cl)noc2C(C)(C)F)c2cccc(/C=C/C(=O)O)c12 [Example 52, (2E)-3-(1-{[3-(2-Chloro-6-fluorophenyl)-5-(2-fluoropropan-2-yl)-1,2-oxazol-4-yl]carbonyl}-3-methyl-1H-indol-4-yl)prop-2-enoic acid]",17
6,"Cc1cn(C(=O)c2c(-c3c(Cl)cccc3Cl)noc2C(C)(C)F)c2cccc(/C=C/C(=O)O)c12 [Example 53, (2E)-3-(1-{[3-(2,6-Dichlorophenyl)-5-(2-fluoropropan-2-yl)-1,2-oxazol-4-yl]carbonyl}-3-methyl-1H-indol-4-yl)prop-2-enoic acid]",17
7,"Cc1cn(C(=O)c2c(-c3c(F)cc(Cl)cc3F)noc2C(C)(C)F)c2cccc(/C=C/C(=O)O)c12 [Example 54, (2E)-3-(1-{[3-(4-Chloro-2,6-difluorophenyl)-5-(2-fluoropropan-2-yl)-1,2-oxazol-4-yl]carbonyl}-3-methyl-1H-indol-4-yl)prop-2-enoic acid]",17
8,"Cc1cc(Cl)c(-c2noc(C(C)(C)F)c2C(=O)n2cc(C)c3c(/C=C/C(=O)O)cccc32)c(Cl)c1 [Example 56, (2E)-3-(1-{[3-(2,6-Dichloro-4-methylphenyl)-5-(2-fluoropropan-2-yl)-1,2-oxazol-4-yl]carbonyl}-3-methyl-1H-indol-4-yl)prop-2-enoic acid]",15
9,"COC1(c2onc(-c3c(Cl)cc(Cl)cc3Cl)c2C(=O)n2cc(C)c3c(/C=C/C(=O)O)cccc32)CC1 [Example 57, (2E)-3-(1-{[5-(1-Methoxycyclopropyl)-3-(2,4,6-trichlorophenyl)-1,2-oxazol-4-yl]carbonyl}-3-methyl-1H-indol-4-yl)prop-2-enoic acid]",10
10,"COc1cc(Cl)cc(Cl)c1-c1noc(C(C)(C)F)c1C(=O)n1cc(C)c2c(/C=C/C(=O)O)cccc21 [Example 58, (2E)-3-(1-{[3-(2,4-Dichloro-6-methoxyphenyl)-5-(2-fluoropropan-2-yl)-1,2-oxazol-4-yl]carbonyl}-3-methyl-1H-indol-4-yl)prop-2-enoic acid]",27
11,"Cc1cc(C)c(-c2noc(C(C)(C)F)c2C(=O)n2cc(C)c3c(/C=C/C(=O)O)cccc32)c(C)c1 [Example 60, (2E)-3-(1-{[5-(2-Fluoropropan-2-yl)-3-(2,4,6-trimethylphenyl)-1,2-oxazol-4-yl]carbonyl}-3-methyl-1H-indol-4-yl)prop-2-enoic acid]",18
12,"Cc1cn(C(=O)c2c(-c3ccc(Cl)cc3Cl)noc2C(C)(C)F)c2cccc(/C=C/C(=O)O)c12 [Example 62, (2E)-3-(1-{[3-(2,4-Dichlorophenyl)-5-(2-fluoropropan-2-yl)-1,2-oxazol-4-yl]carbonyl}-3-methyl-1H-indol-4-yl)prop-2-enoic acid]",20
13,"CC(=O)c1cn(C(=O)c2c(-c3c(Cl)cc(Cl)cc3Cl)noc2C(C)(C)F)c2cccc(/C=C/C(=O)O)c12 [Example 64, (2E)-3-(3-Acetyl-1-{[5-(2-fluoropropan-2-yl)-3-(2,4,6-trichlorophenyl)-1,2-oxazol-4-yl]carbonyl}-1H-indol-4-yl)prop-2-enoic acid]",252
14,"CC(C)(F)c1onc(-c2c(Cl)cc(Cl)cc2Cl)c1C(=O)n1cc(Cl)c2c(/C=C/C(=O)O)cccc21 [Example 66, (2E)-3-(3-Chloro-1-{[5-(2-fluoropropan-2-yl)-3-(2,4,6-trichlorophenyl)-1,2-oxazol-4-yl]carbonyl}-1H-indol-4-yl)prop-2-enoic acid]",14
15,"Cc1cn(C(=O)c2c(-c3c(Cl)cc(Br)cc3Cl)noc2C(C)(C)F)c2cccc(/C=C/C(=O)O)c12 [Example 68, (2E)-3-(1-{[3-(4-Bromo-2,6-dichlorophenyl)-5-(2-fluoropropan-2-yl)-1,2-oxazol-4-yl]carbonyl}-3-methyl-1H-indol-4-yl)prop-2-enoic acid]",15
16,"CC(C)(F)c1onc(-c2ccc(Cl)cc2Cl)c1C(=O)n1cc2c3c(cccc31)/C(=C/C(=O)O)CC2 [Example 69, (2E)-[1-{[3-(2,4-Dichlorophenyl)-5-(2-fluoropropan-2-yl)-1,2-oxazol-4-yl]carbonyl}-3,4-dihydrobenzo[cd]indol-5(1H)-ylidene]ethanoic acid]",18
17,"Cc1cn(C(=O)c2c(-c3c(Cl)cc(C4CC4)cc3Cl)noc2C(C)(C)F)c2cccc(/C=C/C(=O)O)c12 [Example 70, (2E)-3-(1-{[3-(2,6-Dichloro-4-cyclopropylphenyl)-5-(2-fluoropropan-2-yl)-1,2-oxazol-4-yl]carbonyl}-3-methyl-1H-indol-4-yl)prop-2-enoic acid]",16
18,"COC1(c2onc(-c3c(Cl)cc(Cl)cc3Cl)c2C(=O)n2ccc3c(/C=C/C(=O)O)cccc32)CCC1 [Example 74, (2E)-3-(1-{[5-(1-Methoxycyclobutyl)-3-(2,4,6-trichlorophenyl)-1,2-oxazol-4-yl]carbonyl}-1H-indol-4-yl)prop-2-enoic acid]",20
19,"CC1(c2onc(-c3c(Cl)cccc3Cl)c2C(=O)n2ccc3c(/C=C/C(=O)O)cccc32)COC1 [Example 75, (2E)-3-(1-{[3-(2,6-Dichlorophenyl)-5-(3-methyloxetan-3-yl)-1,2-oxazol-4-yl]carbonyl}-1H-indol-4-yl)prop-2-enoic acid]",11
20,"COC1(c2onc(-c3c(Cl)cccc3Cl)c2C(=O)n2ccc3c(/C=C/C(=O)O)cccc32)COC1 [Example 76, (2E)-3-(1-{[3-(2,6-Dichlorophenyl)-5-(3-methoxyoxetan-3-yl)-1,2-oxazol-4-yl]carbonyl}-1H-indol-4-yl)prop-2-enoic acid]",6
21,"CC1(c2onc(-c3c(Cl)cccc3Cl)c2C(=O)n2ccc3c(/C=C/C(=O)O)cccc32)CCO1 (centres unmarked) [Example 77, (2E)-3-(1-{[3-(2,6-Dichlorophenyl)-5-(2-methyloxetan-2-yl)-1,2-oxazol-4-yl]carbonyl}-1H-indol-4-yl)prop-2-enoic acid]",8
22,"Cc1cn(C(=O)c2c(-c3c(Cl)cc(Cl)cc3Cl)noc2C2(N(C)C)CC2)c2cccc(/C=C/C(=O)O)c12 [Example 82, (2E)-3-(1-{[5-[1-(Dimethylamino)cyclopropyl]-3-(2,4,6-trichlorophenyl)-1,2-oxazol-4-yl]carbonyl}-3-methyl-1H-indol-4-yl)prop-2-enoic acid]",13
23,"CNC(C)(C)c1onc(-c2c(Cl)cc(Cl)cc2Cl)c1C(=O)n1cc(C)c2c(/C=C/C(=O)O)cccc21 [Example 84, (2E)-3-[3-Methyl-1-({5-[2-(methylamino)propan-2-yl]-3-(2,4,6-trichlorophenyl)-1,2-oxazol-4-yl]carbonyl}-1H-indol-4-yl)prop-2-enoic acid]",15
24,"CNC(C)(C)c1onc(-c2c(Cl)cc(Cl)cc2Cl)c1C(=O)n1cc2c3c(cccc31)/C(=C/C(=O)O)CC2 [Example 85, (2E)-[1-({5-[2-(Methylamino)propan-2-yl]-3-(2,4,6-trichlorophenyl)-1,2-oxazol-4-yl}carbonyl)-3,4-dihydrobenzo[cd]indol-5(1H)-ylidene]ethanoic acid]",14
25,"CNC1(c2onc(-c3c(Cl)cc(Cl)cc3Cl)c2C(=O)n2cc3c4c(cccc42)/C(=C/C(=O)O)CC3)CC1 [Example 86, (2E)-[1-({5-[1-(Methylamino)cyclopropyl]-3-(2,4,6-trichlorophenyl)-1,2-oxazol-4-yl}carbonyl)-3,4-dihydrobenzo[cd]indol-5(1H)-ylidene]ethanoic acid]",8
26,"C=CC(=O)N(C)C1(c2onc(-c3c(Cl)cc(Cl)cc3Cl)c2C(=O)n2cc(C)c3c(/C=C/C(=O)O)cccc32)CCC1 [Example 87, (2E)-3-(1-{[5-{1-[Acryloyl(methyl)amino]cyclobutyl}-3-(2,4,6-trichlorophenyl)-1,2-oxazol-4-yl]carbonyl}-3-methyl-1H-indol-4-yl)prop-2-enoic acid]",34
27,"Cc1cn(C(=O)c2c(-c3c(Cl)cc(Cl)cc3Cl)noc2C2(C(=O)N(C)C)CCC2)c2cccc(/C=C/C(=O)O)c12 [Example 89, (2E)-3-(1-{[5-[1-(Dimethylcarbamoyl)cyclobutyl]-3-(2,4,6-trichlorophenyl)-1,2-oxazol-4-yl]carbonyl}-3-methyl-1H-indol-4-yl)prop-2-enoic acid]",50
28,"Cc1cn(C(=O)c2c(-c3c(Cl)cc(Cl)cc3Cl)noc2C(C)(C)N(C)C)c2cccc(/C=C/C(=O)O)c12 [Example 91, (2E)-3-[1-({5-[2-(Dimethylamino)propan-2-yl]-3-(2,4,6-trichlorophenyl)-1,2-oxazol-4-yl}carbonyl)-3-methyl-1H-indol-4-yl]prop-2-enoic acid]",21
29,CN(C)C1(c2onc(-c3c(Cl)cc(Cl)cc3Cl)c2C(=O)n2cc3c4c(cccc42)/C(=C/C(=O)O)CC3)CC1 [Example 92],10
